Earlier results on 1 molecule are cited in patent US20120095019A1 (priority 2010, published 2012).

For the series the following is noted: not told; cited from earlier work.

In the case of `CC(=O)N1CCN(c2ccc(OCC3COC(Cn4ccnc4)(c4ccc(Cl)cc4Cl)O3)cc2)CC1` (stereo not shown) [ketoconazole], the permeability entry is “high permeability”.
